From US6812230B2, “Non-peptide CCR1 receptor antagonists for the treatment of progressive renal fibrosis” (Schering Aktiengesellschaft, priority 2001, dated 2004)

What was measured:
Conditions in all cases: mouse, in vivo
[1] = test system: unilateral ureteral obstruction (UUO), obstructed kidneys
[2] = test system: unilateral ureteral obstruction (UUO), obstructed kidneys; remark: listed apart in the source
[3] = test system: CCR5+ / CCR2+ T cells infiltrating the obstructed kidneys

**Q.** How did the “mean number of activated fibroblasts in the peritubular interstitium, obstructed kidneys” value [1] turn out when `C[C@@H]1CN(Cc2ccc(F)cc2)CCN1C(=O)COc1ccc(Cl)cc1NC(N)=O` [BX471, (2R)-1-((4-chloro-2-(ureido)phenoxy)methyl)carbonyl-2-methyl-4-(4-fluorobenzyl)piperazine] was run?
**A.** significantly decreased

**Q.** And the “mean number of infiltrating leukocytes in the peritubular interstitium, obstructed kidneys” value [1]?
**A.** significantly decreased

**Q.** And the “number of activated fibroblasts, obstructed kidneys” value [1]?
**A.** no significant decrease

**Q.** And the “number of infiltrating leukocytes, obstructed kidneys” value [1]?
**A.** no significant decrease

**Q.** And the “tubular dilatation, obstructed kidneys” value [2]?
**A.** unaffected

**Q.** And the “tubular epithelial cell damage, obstructed kidneys” value [2]?
**A.** unaffected

**Q.** What about the “number of CCR5+ CD4+, CCR2+ CD4+ or CCR2+ CD8+ T cells in obstructed kidneys, vehicle as compared to antagonist” value [3] of the same molecule?
**A.** No increase

**Q.** And the “number of CCR5+ CD8+ T cells infiltrating the obstructed kidneys” value [3]?
**A.** 44.2%
